Columns and labels:
[1] = target: T1, tauPRR, the proline rich region of tau, labelled with Alexa Fluor 488 (human (by the printed UniProt entry)); test: fluorescence correlation spectroscopy (FCS); ~20 nM fluorescent protein (Alexa 488-labelled tau construct or eGFP) with unlabelled monomer αS up to 150 μM; 20°C; 50 mM Na2HPO4, 50 mM NaCl pH 7.0; single-species diffusion fit, τD normalised to the protein alone
[2] = target: T1, tauPRR, the proline rich region of tau, labelled with Alexa Fluor 488 (human); test: fluorescence correlation spectroscopy (FCS); labelled tauPRR with 60 nM αS seeds in low (5 mM NaCl), standard (50 mM NaCl) and high salt (500 mM NaCl) buffers; two-component diffusion fit
[3] = target: T1, tauPRR, the proline rich region of tau, labelled with Alexa Fluor 488 (human); test: fluorescence correlation spectroscopy (FCS); ~20 nM fluorescent protein (Alexa 488-labelled tau construct or eGFP) with unlabelled αS seeds at 20, 60 or 100 nM (monomer units); 20°C; 50 mM Na2HPO4, 50 mM NaCl pH 7.0; two-component diffusion fit, medians of type III curves

Substance: N-terminally acetylated full-length α-synuclein, monomer (from UniProt P37840 1-140) (natural protein)
- percent increase in τD at 150 μM αS (lower population) [1]: 7%

Substance: full-length αS seeds (sonicated fibrils of N-terminally acetylated α-synuclein) (from UniProt P37840 1-140) (complex)
- median fB of type III curves, 60 nM αS seeds, 500 mM NaCl [2]: 0.02
- percent of curves fit by a two-component diffusion model, 60 nM αS seeds, 5 mM NaCl [2]: 99%
- percent of curves fit by a two-component diffusion model, 60 nM αS seeds, 50 mM NaCl [2]: 93%
- percent of curves of type I (little evidence of binding), 60 nM αS seeds, 50 mM NaCl [2]: 2%
- fB as the discussion prints it, at 60 nM αS seeds [3]: 100%
- fB as the discussion prints it, at 100 nM αS seeds [3]: 100%
- median fB (fraction of tau with τD2) at 20 nM αS seeds [3]: 0.062
- median fB (fraction of tau with τD2) at 60 nM αS seeds [3]: 0.29
- median fB (fraction of tau with τD2) at 100 nM αS seeds [3]: 0.32
- median type III τ (D2app) at 20 nM αS seeds [3]: 3.3 ms
- median type III τ (D2app) at 100 nM αS seeds [3]: 4 ms
